Molecular target: second bromodomain of TAF1
Experiment: ITC

Kd [µM]	Substance
52	H4K5acK8ac peptide (the H4 acetylation counterpart of H4K5crK8cr)
117	H4K5crK8cr peptide

— paper PMC4841940 (Molecular cell, 2016)
